Here are results for eight compounds from PubChem BioAssay (Tox21).

By UniProt entry, the sequences of proteins in these tests, tags left out. Where a name states a change or a piece, a line headed by the entry shows the natural chain unless it says otherwise.
UniProt Q14994: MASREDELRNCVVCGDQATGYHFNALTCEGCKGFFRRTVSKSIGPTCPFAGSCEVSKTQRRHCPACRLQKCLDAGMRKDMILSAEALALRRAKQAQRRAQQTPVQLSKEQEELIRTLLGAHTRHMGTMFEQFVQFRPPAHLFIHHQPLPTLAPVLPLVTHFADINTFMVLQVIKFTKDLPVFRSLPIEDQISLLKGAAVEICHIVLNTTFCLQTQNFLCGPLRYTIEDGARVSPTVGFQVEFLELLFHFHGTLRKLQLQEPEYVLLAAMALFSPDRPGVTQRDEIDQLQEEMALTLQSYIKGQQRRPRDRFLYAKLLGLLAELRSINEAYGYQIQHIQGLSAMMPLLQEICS
UniProt P16473, whole entry, looked up: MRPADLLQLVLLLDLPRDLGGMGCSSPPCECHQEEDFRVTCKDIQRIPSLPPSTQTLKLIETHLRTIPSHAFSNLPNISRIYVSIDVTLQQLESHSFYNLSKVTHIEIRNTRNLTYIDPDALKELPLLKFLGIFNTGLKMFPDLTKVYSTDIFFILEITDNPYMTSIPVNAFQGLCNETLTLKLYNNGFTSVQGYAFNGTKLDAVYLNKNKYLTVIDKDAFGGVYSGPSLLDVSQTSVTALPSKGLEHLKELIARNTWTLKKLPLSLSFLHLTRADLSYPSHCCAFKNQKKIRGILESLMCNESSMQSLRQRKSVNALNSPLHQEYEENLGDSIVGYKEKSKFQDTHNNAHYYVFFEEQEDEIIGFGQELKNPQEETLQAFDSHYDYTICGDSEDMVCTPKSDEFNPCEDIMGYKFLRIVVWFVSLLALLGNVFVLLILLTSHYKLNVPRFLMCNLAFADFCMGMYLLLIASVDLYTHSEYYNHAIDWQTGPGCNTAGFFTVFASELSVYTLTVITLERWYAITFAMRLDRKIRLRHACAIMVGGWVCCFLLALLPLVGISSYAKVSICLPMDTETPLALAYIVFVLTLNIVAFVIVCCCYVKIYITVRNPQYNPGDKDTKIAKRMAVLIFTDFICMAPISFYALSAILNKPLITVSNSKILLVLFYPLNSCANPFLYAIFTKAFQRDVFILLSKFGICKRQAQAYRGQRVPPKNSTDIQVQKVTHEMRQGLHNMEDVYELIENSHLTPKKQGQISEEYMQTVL

In test [1] the target is Nuclear receptor subfamily 1 group I member 3 (Homo sapiens) (UniProt Q14994). The test is described as follows: qHTS assay to identify small molecule antagonists of the constitutive androstane receptor (CAR) signaling pathway (AID 1224838).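 Also: HepG2 cells stably expressing hCAR with CYP2B6 luciferase reporter stimulated by CITCO; nearly all actives have a fitted effect of over 40% in size.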 For orientation: qHTS replaces the single test concentration by a dilution series.
Test [2] has the same target. The test is described as follows: qHTS assay to identify small molecule agonists of the constitutive androstane receptor (CAR) signaling pathway (AID 1224839).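 Also: HepG2 cells stably carrying human CAR and a CYP2B6 luciferase reporter; nearly all actives have a fitted effect of over 15% in size.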 To be noted: HepG2 hCAR CYP2B6-luciferase, agonist mode, 24 h; at 92.4 µM (top of the series) unless noted.
Test [3] is described as follows: qHTS assay to identify small molecule antagonists of the estrogen related receptor signaling pathway with the pleiotropic PPARgamma coactivator (PGC) from Tox21 10K library - cell viability counter screen (AID 1224840; active = well fitted cell-killing curve with a large enough effect in the repeat runs, not every such curve was filed as active; also: nearly all actives have a fitted effect of over 40% in size). To be noted: PGC/ERR reporter cells viability, CellTiter-Fluor, 17.5 h; at 92.4 µM (top of the series) unless noted. In short, it runs like this: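 Following seeding of 2,000 PGC/ERR cells/well and 6 hours' incubation, test compounds were delivered in DMSO. The plates then sat 17.5 hours at 37 C before a fluorogenic live-cell protease reagent (CellTiter-Fluor) was read after 30 min.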

The target in test [4] is Thyrotropin receptor (Homo sapiens) (UniProt P16473). Description: qHTS assay to identify small molecule agonists of the thyroid stimulating hormone receptor (TSHR) signaling pathway (AID 1224843; calls by dose curve; also: nearly all actives have a fitted effect of over 45% in size; also: potency is read from the fitted curve at half-maximal effect).
Test [5] can be described thus: qHTS assay to identify small molecule agonists of H2AX (AID 1224845; active = well fitted activation curve with a large enough effect in the signal ratio in the repeat runs, not every such curve was filed as active; the % refers to the signal ratio). In short, it runs like this:
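Wild-type CHO-K1 cells, plated overnight, exposed 3hr at 37C to 15 concentrations (0.76% DMSO final). Lysed, then HTRF anti-pH2AX (S139) cryptate and anti-H2AX-d2 antibodies, 24 hr room temperature; 665/620 nm emission read.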

A short description of test [6]: qHTS assay to identify small molecule agonists of the hypoxia (HIF-1) signaling pathway (AID 1224846; active = well fitted activation curve with a large enough effect in the signal ratio in the repeat runs, not every such curve was filed as active; the % refers to the signal ratio). The following applies: HRE-bla ME-180 cells, beta-lactamase ratio, 17 h; at 76.8 µM (top of the series) unless noted. In short, it runs like this:
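A low-serum medium (0.5% dialyzed FBS) holding 2,000 HRE-bla ME-180 cells per well is preincubated for 5 hrs, dosed with compounds by pintool, and kept a further 17 hrs at 37C, 5% CO2 before CCF4-AM FRET detection of beta-lactamase.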

Test [7] in a line: qHTS RealTime-Glo MT Cell Viability Assay in HepG2 cells - 40 hour (AID 1224870). Also: nearly all actives have a fitted effect of over 50% in size. The method, boiled down:
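HepG2 cells (600/well) mixed with RealTime-Glo MT reagent, settled 5 h at 37 C/5% CO2 before compound addition. Nonlytic NanoLuc luminescence from viable-cell prosubstrate reduction read repeatedly during 40 h treatment at 37 C.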

Test [8] is described as follows: A CellTox Green Cytotoxicity Assay to monitor cytotoxicity in HEK293 cells - 40 hour (AID 1224871). Also: nearly all actives have a fitted effect of over 45% in size. The method, boiled down: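 Fluorescence intensity, read at 0, 8, 16, 24, 32 and 40 h of compound treatment, reflected dye binding to DNA of dead HEK293 cells; compounds (23 nL, DMSO) were added 5 h after plating cells with reagent.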
A short description of test [9]: qHTS RealTime-Glo MT Cell Viability Assay in HEK293 cells - 16 hour (AID 1224872). Also: top concentration of the series differs between compounds; nearly all actives have a fitted effect of over 50% in size. The method, boiled down:
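Assay medium contained NanoLuc luciferase plus cell-permeant prosubstrate, added with HEK293 cells at 600 cells/well. After 5 h at 37 C/5% CO2 compounds were added; plates stayed at 37 C for 40 h with serial luminescence reads.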

Test [10] can be described thus: qHTS RealTime-Glo MT Cell Viability Assay in HEK293 cells - 40 hour (AID 1224874). Also: nearly all actives have a fitted effect of over 50% in size. To be noted: RealTime-Glo luminescence; max response: hits give low values. The method, boiled down:
(§1)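 Viable HEK293 cells reduce a cell-permeant prosubstrate; the product diffuses out and is consumed by NanoLuc in the medium to give light. Compounds went in after a 5 h incubation and plates were read over the treatment course.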

The nature of test [11]: qHTS RealTime-Glo MT Cell Viability Assay in HepG2 cells - 32 hour (AID 1224877). Also: nearly all actives have a fitted effect of over 55% in size. The method, boiled down:
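qHTS, HepG2, 600 cells/well, RealTime-Glo (NanoLuc + prosubstrate) added with cells; 5 h preincubation; DMSO compound addition; 37 C; luminescence at 0/8/16/24/32/40 h.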

Test [12] in a line: A CellTox Green Cytotoxicity Assay to monitor cytotoxicity in HepG2 cells - 24 hour (AID 1224878). Also: nearly all actives have a fitted effect of over 45% in size. The method, boiled down:
(§2)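 Using 1536-well format, dye-containing HepG2 suspension was seeded, allowed 5 h at 37 C/5% CO2, dosed by pintool with compounds, positive and negative controls, and imaged for fluorescence across 40 h.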

A short description of test [13]: qHTS RealTime-Glo MT Cell Viability Assay in HEK293 cells - 0 hour (AID 1224880). Also: top concentration of the series differs between compounds; nearly all actives have a fitted effect of over 45% in size. The following applies: RealTime-Glo luminescence; at 76.8 µM (top of the series) unless noted. The method, boiled down: as §1
A short description of test [14]: A CellTox Green Cytotoxicity Assay to monitor cytotoxicity in HepG2 cells - 0 hour (AID 1224882). Also: nearly all actives have a fitted effect of over 35% in size. To be noted: CellTox Green fluorescence; at 76.8 µM (top of the series) unless noted. In short, it runs like this: as §2
Test [15] is described as follows: qHTS assay to identify small molecule antagonists of the estrogen related receptor signaling pathway with the pleiotropic PPARgamma coactivator (PGC) from Tox21 10K library (AID 1224841; call rule not given here; also: actives are mostly falling curves and most rising ones were filed inactive; nearly all actives have a fitted effect of over 50% in size).
Test [16] is described as follows: qHTS assay to identify small molecule agonists of the estrogen related receptor signaling pathway with the pleiotropic PPARgamma coactivator (PGC) from Tox21 10K library (AID 1224842). Also: nearly all actives have a fitted effect of over 15% in size. To be noted: PGC/ERR reporter cell line, luciferase ONE-Glo, 18 h; at 92.4 µM (top of the series) unless noted. The method, boiled down: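 PGC/ERR reporter cell line, 2,000 cells per well, incubated 6 h at 37 C before 23 nL compound in DMSO was added. After 18 h at 37 C, One-Glo luminescence read following 30 min at room temperature.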

Test [17] in a line: qHTS assay to identify small molecule agonists of the hypoxia (HIF-1) signaling pathway - cell viability counter screen (AID 1224844; calls by dose curve; also: nearly all actives have a fitted effect of over 50% in size). In short, it runs like this: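 Cells (HRE-bla ME-180, 2,000 per well) sat 5 hrs at 37C, got compound for 17 hrs, were read for CCF4-AM FRET, and were finally lysed with CellTiter-Glo for a 30 min room-temperature luminescence read.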
Test [18] can be described thus: qHTS assay to identify small molecule antagonists of the estrogen related receptor (ERR) signaling pathway from Tox21 library (AID 1224848). Also: nearly all actives have a fitted effect of over 50% in size. The method, boiled down: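 ERR reporter cell line (from NTP) seeded 2,000 cells/well, rested 6 h at 37 C/5% CO2, then pin-dosed with compounds in DMSO. After 18 h at 37 C, ONE-Glo added; luminescence read after 30 min at room temperature.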

Test [19] in a line: qHTS assay to identify small molecule agonists of the estrogen related receptor (ERR) signaling pathway from Tox21 library (AID 1224849; calls by dose curve; also: nearly all actives have a fitted effect of over 15% in size). The following applies: ERR reporter cell line, ONE-Glo luciferase, 18 h; at 92.4 µM (top of the series) unless noted. The method, boiled down:
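Screening used an NTP-provided ERR luciferase cell line. Compounds in DMSO were added 6 h after seeding and left 18 h at 37 C before a 30 min ONE-Glo step and luminescence reading.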

Test [20] is described as follows: A CellTox Green Cytotoxicity Assay to monitor cytotoxicity in HepG2 cells - 40 hour (AID 1224879). Also: nearly all actives have a fitted effect of over 40% in size. The method, boiled down: as §2

Values joined by “and” are separate entries in the source; they are usually repeats but may differ in a detail not shown here. Identical values can stand only once. The list shows a part of the results, in another mix than the full data. Results filed as inconclusive are left out. Active and inactive are the calls of the source. Unless noted, calls follow the shape of the dose curve; as a rule, active = well fitted curve in the direction sought with a large enough effect in the repeat runs; inconclusive = weak or mixed curves; inactive = no such curve, though single readings can be large; an effect the other way counts as inactive or inconclusive.
% is scaled to controls: 0 for no effect and ±100 for the full control effect.

As for `COP(=S)(Cl)OC`, the Potency entry in test [1], in test [4], in [5], in test [7], in [8] and in test [9] was “inactive” each time. For the same compound, the Potency result in test [11] and in [12] was “inactive” in each case. The activation in test [2] was inactive: -7.01%; in [6], inactive: 0.727%. The viability change, negative = cytotoxic in test [3] is inactive: 0.391%. In addition, the max response in test [10] is inactive: -14.7%. Moreover, in test [13], the activity change, negative = cytotoxicity is inactive: -4.07%. Further, the cytotoxicity in test [14] is inactive: -3.33%.

On to `CCC(C)(OOC(C)(C)C)OOC(C)(C)C`, for which the activity, negative = inhibition is inactive: 4.19% [at 19 µM] in test [1], inactive: 36.9% [at 19 µM] in test [15] and inactive: 18.8% [at 19 µM] in [18]. The activation was inactive: -0.0445% [at 19 µM] in test [2], inactive: 1.92% [at 19 µM] in test [16], inactive: -1.49% [at 19 µM] in test [4] and inactive: -0.0206% [at 15.8 µM] in test [6]. In addition, the viability change, negative = cytotoxic in test [3] is inactive: -10.8% [at 19 µM]. The values for the activity change, negative = cytotoxicity in test [17], in test [9] and in test [13] were inactive: 0.981% [at 15.8 µM], inactive: 7.52% [at 15.8 µM] and inactive: 6.82% [at 15.8 µM], respectively. The activation (H2AX phosphorylation) in test [5] is inactive: -2.61% [at 31.6 µM]. In test [19], the activity change, positive = activation was inactive: 9.76% [at 19 µM]. In addition, the figures for the activity change, negative = cytotoxic in test [7] and in [11] were inactive: 22.9% [at 15.8 µM] and inactive: 10.6% [at 15.8 µM], respectively. The cytotoxicity increase is inactive: -11.6% [at 15.8 µM] in test [8] and inactive: -26% [at 15.8 µM] in test [20]. In addition, the max response in [10] is inactive: 11.2%. In addition, the figures for the cytotoxicity in test [12] and in [14] were inactive: -24% [at 15.8 µM] and inactive: -12.4% [at 15.8 µM], respectively.

Regarding `O=[P+](Oc1ccccc1)Oc1ccccc1`, the Potency entry in test [1], in test [4], in test [17], in test [5], in test [7] and in test [8] was “inactive” each time. Moreover, the Potency entry in test [9], in [11], in test [12] and in test [20] was “inactive” in each case. In addition, the activation was inactive: 0.13% in [2] and inactive: 1.09% in test [6]. In test [3], the viability change, negative = cytotoxic is inactive: 0.339%. Further, the max response in test [10] was inactive: 10.7%. Moreover, the activity change, negative = cytotoxicity in test [13] was inactive: 12.8%. Besides, the cytotoxicity in [14] is inactive: 0.413%.

In the case of `O=P(Cl)(Oc1ccccc1)Oc1ccccc1`, the Potency result in [1], in test [4], in test [17], in [5], in [7] and in test [8] was “inactive” throughout. Further, the Potency entry in test [9], in test [11], in [12] and in test [20] was “inactive” in each case. Moreover, the activation is inactive: 2.27% in test [2] and inactive: 0.376% in test [6]. Besides, the viability change, negative = cytotoxic in [3] is inactive: 7.01%. For the same compound, the activity change, negative = cytotoxicity in test [13] was inactive: -4.04%. For the same compound, in test [14], the cytotoxicity is inactive: -9.72%.

With `O=[N+]([O-])c1ccc(S(=O)(=O)O)c([N+](=O)[O-])c1`, the viability change, negative = cytotoxic in test [3] was inactive: 0.427%. Besides, in [4], the Potency was active: 2.75 µM. The Potency entry in test [17], in [5], in [7], in test [8], in test [9] and in test [11] was “inactive” each time. The Potency result in test [12] and in test [20] was “inactive” throughout. Further, in test [10], the max response was inactive: 7.22%. Besides, the activity change, negative = cytotoxicity in test [13] was inactive: 18.5%. For the same compound, the cytotoxicity in test [14] is inactive: 1.08%.

`CC(C)OP(=S)(OC(C)C)SCCNS(=O)(=O)c1ccccc1`: the Potency result in test [1], in test [17], in test [5], in test [7], in test [8] and in [11] was “inactive” throughout. Besides, the Potency result in [12] and in [20] was “inactive” in each case. Moreover, the values for the activation in test [16] and in test [6] were inactive: -22.2% and inactive: 1.39%, respectively. Also, the activity change, positive = activation in test [19] was inactive: -51.4%. Further, in test [13], the activity change, negative = cytotoxicity is inactive: -1.63%. Moreover, the cytotoxicity in [14] is inactive: 4.23%.

Regarding `CCCCOP(OCCCC)OCCCC`, the Potency entry in test [1], in [4], in test [17], in test [5], in test [7] and in test [8] was “inactive” throughout. In addition, the Potency entry in [9], in test [11], in [12] and in test [20] was “inactive” each time. Also, in [3], the viability change, negative = cytotoxic was inactive: 1.13%. Besides, the activation in [6] is inactive: 0.0217%. Also, the max response in test [10] was inactive: 0.902%. Moreover, the activity change, negative = cytotoxicity in test [13] is inactive: 3.64%. In addition, the cytotoxicity in test [14] is inactive: -7.1%.

In the case of `CCCCO[P+](=O)OCCCC`, the Potency result in test [1], in test [15], in test [4], in test [17], in test [5] and in test [18] was “inactive” throughout. In addition, the Potency result in test [7], in [8], in test [9], in test [11], in test [12] and in test [20] was “inactive” throughout. In addition, the activation in [2] was inactive: -0.873% and inactive: -1.09%; in test [16] it was inactive: -6.02% and inactive: -1.83%; in [6], inactive: 0.0918% and inactive: -0.073%. Also, in [3], the viability change, negative = cytotoxic was inactive: -3.15% and inactive: 3.69%. Also, the activity change, positive = activation in test [19] is inactive: 2.62% and inactive: 1.7%. In test [10], the max response was inactive: 2.53% and inactive: 8.49%. Further, the activity change, negative = cytotoxicity in [13] was inactive: -4.15% and inactive: 1.07%. Besides, the cytotoxicity in [14] is inactive: -1.11% and inactive: 0.166%.
